Apparent affinities of Ab-14 variants for a coronavirus HR2 peptide

Reference: Li et al. 2023, doi:10.1038/s41467-023-39022-2. File: FLAb, binding data.

The target is the same throughout: PDVDLGDISGINAS, from the HR2 region of SARS-CoV-2 spike.

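The parent was found by panning a naive human phage display library on the peptide. This is the validation round: designs drawn from the data on random variants, tested in the same kind of assay. Several design methods are mixed in this list. Affinity was read by AlphaSeq, a pooled yeast mating assay with surface-displayed partners. Pairs that bind mate more often; barcode pairs of the diploids are counted by sequencing. A regression on co-assayed BCL2-family reference pairs converts the normalised counts of each replicate to an apparent Kd. There are six technical replicates.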

Ab-14 is the parent antibody, in scFv form: VH, then a 15-residue (Gly4Ser)3 linker, then VL. The light chain is unchanged in all variants.
VH: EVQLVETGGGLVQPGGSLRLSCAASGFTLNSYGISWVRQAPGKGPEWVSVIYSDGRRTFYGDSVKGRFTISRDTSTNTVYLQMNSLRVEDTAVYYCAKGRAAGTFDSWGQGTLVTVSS
VL: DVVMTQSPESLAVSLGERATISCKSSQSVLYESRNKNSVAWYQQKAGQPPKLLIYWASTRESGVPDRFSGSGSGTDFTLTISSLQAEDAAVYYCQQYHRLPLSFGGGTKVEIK

The parent's heavy chain CDRs are GFTLNSYGIS, VIYSDGRRTFYGDSVK, GRAAGTFDS; each variant's own CDRs replace them letter for letter.
Kd is apparent (estimated from mating counts) and averaged on the log scale over replicates with a signal. Smaller is tighter.
An entry "nd" has no value in the source: the pair was not observed among the diploids in any replicate. This suggests poor binding but is not conclusive.
The range of this assay differs from that of the first round, and the authors advise against merging the two.
In the paper, a design with two or fewer of six values counts as a poor binder.
Background: pairings of all heavy chain designs with three empty control strains gave a value in 1% of cases (median 120 nM, 5th percentile 7.0 nM). Values in that range, when seen in few replicates, are hard to tell from nonspecific mating.
Of ten entries with the parent sequence, four were seen in most replicates (averages 2.2 nM to 240 nM), three in one and three in none, so single entries are noisy.

apparent Kd,replicates with signal,CDR-H1,CDR-H2,CDR-H3
9.7 nM,5 of 6,GFQLNSYGIS,VIYSDGRRTFYGDSVK,GKTAGTFDS
11 nM,6 of 6,DFDLNSYGIS,VIYSDGRRTFYGDSVK,GRQAGTFDS
37 nM,5 of 6,GFTLNSYGIS,VIYSDGKRTFYGDKVK,GQAAGTFDL
1.0 nM,6 of 6,GFELNEYGIS,VIYSDGRRTAYGDSVK,GRQAGTFDS
nd,0 of 6,GFTNNEYGIS,VIYSDGRRTFYGDSVK,GRAAGTFDS
65 nM,1 of 6,GFSLNWYGIS,VIYSDGRRTFYIDSVK,GEAAGTFDS
nd,0 of 6,DFTLNSYGIS,VIYSDGRRTFYDDSVK,GQEAGTFDS
13 nM,1 of 6,GFTLNSYGIS,VIYSDGRRTFYQDSVK,GRAAGTFEI
nd,0 of 6,GFHLNSYGIS,VIYSDGRRTFYGDSVK,GRAALTFDS
510 pM,6 of 6,GFDLEEYGIS,VIYADGRRTAYSDSVK,GENAGTFDI
120 nM,1 of 6,GFSLDEYGIS,VIYADGQRKSYSDNVK,GYQGSRVSL
110 pM,6 of 6,GFNLNEYGIS,VIYADGRRTFYADSVK,GQEAGTFDM
nd,0 of 6,GFTLNEYGIS,VIYSDGRRTFYHDSVK,GRAAVTFDQ
160 pM,6 of 6,GFDLNEYGIH,VIYADGIRTVVSNDVK,GNVAGTIDV
660 pM,6 of 6,GFDLDEYGIS,VIYADGQRTAYSDSVK,GEVAGTFDQ
810 pM,6 of 6,GFTLNEYGIS,VIYSDGRRTFYQDDVK,GRTAGTFDS
740 pM,6 of 6,GFDLNEYGIS,VIYADGRRTAYADSVK,GNTAGTFDT
660 pM,5 of 6,GFDLNEYGIS,VIYADGKRTSYADSVK,GNVAGTFDL
nd,0 of 6,GFTLNSYGIS,VIYSDGRRTFYGISVK,GRAAGTFDS
nd,0 of 6,GFDLNEYGIS,VIYADGVQRFYTDNVK,GGNQGTFVL
nd,0 of 6,GFNLEEYGIS,VIYADGSRSSYIEDVK,GQWNADFIV
nd,0 of 6,GFTLNSYGIS,VIYSDGRRNEYGDSVK,GRLAGTFLS
330 pM,6 of 6,GFNLDEYGIS,VIYADGQRTFYADDVK,GNVAGTFDV
nd,0 of 6,GFTLNSYGIS,VIYSDGRRTFYHDSVK,GRAIGTFDS
170 pM,6 of 6,GFDLNEYGIS,VIYADGMRKAYADSVK,GNVAGTFDQ
41 nM,6 of 6,KFTLNSYGIS,VIYSDGRRTFYSDSVK,GEAAGTFDS
52 nM,1 of 6,GFNIDEYGIS,VIYADGQRLSYDDNVK,GGITGTFLN
3.4 nM,6 of 6,GYTLNEYGIS,VIYSDGRRTAYSDSVK,GRAAGTFDS
10 nM,6 of 6,GFLLNDYGIS,VIYSDGRRTQYIDSVK,GRAAGTFDS
nd,0 of 6,GFTLNSYGIS,VIYSDGRRTSYGDSVK,GRAAGTFES
1.9 nM,6 of 6,GFTLESYGIS,VIYSDGRRTFYGDSVK,GREAGTFDS
590 pM,6 of 6,GFDLNEYGIS,VIYADGHRTFYSDSVK,GQSAGTFDL
nd,0 of 6,GFNLDEYGIS,VIYADGVRTAYSSKVK,GKVWWFFLM
nd,0 of 6,GFNLNEYGIS,VIYSDGRRTFYGDSVK,GRAAVTFDQ
160 pM,6 of 6,GFDLNEYGIS,VIYADGRRTFYSDSVK,GKIAGTFDQ
66 nM,6 of 6,GFDLNEYGIS,VIYADGRRTFYADSVK,GEAAGTFIM
870 pM,6 of 6,GFDLDEYGIS,VIYADGMRTAYTDSVK,GETAGTFDI
24 nM,2 of 6,GFTLNDYGIS,VIYSDGRRTFYIDSVK,GRAAGTFIS
500 pM,6 of 6,GFDLNEYGIS,VIYADGKRQAYADSVK,GNQAGTFDV
890 pM,6 of 6,GFTLNEYGIS,VIYSDGKRTFYGDAVK,GRTAGTFDS
810 pM,6 of 6,GFDLDEYGIS,VIYADGRRTAYADSVK,GELAGTFFS
330 pM,6 of 6,GFDLNEYGIS,VIYADGVRTAYQDSVK,GNVAGTFDL
nd,0 of 6,GFSLDEYGIS,VIYADGMRTATVNSVK,GTIDNNITT
nd,0 of 6,GFNINEYGIS,VIYADGLRVAYEDSVK,GNASIFGVD
nd,0 of 6,GFNLNSYGIS,VIYSDGLRDFYGDSVK,GEAAGTFFS
nd,0 of 6,GFNLNEMGVS,VIYADGKRTVYADSVK,GHFGGVKLN
2.3 nM,6 of 6,GFELNEYGIS,VIYSDGRRTFYADSVK,GKAAGTFDK
21 nM,4 of 6,KFQLNSYGIS,VIYSDGRRTFYADSVK,GRTAGTFDS
110 pM,6 of 6,GFDLNEYGIS,VIYADGRRTQYADSVK,GEQAGTFDS
11 nM,6 of 6,GFTLNSYGIS,VIYSDGRKTFYDDSVK,GQVAGTFDS
1.4 nM,6 of 6,GFDLNNYGIS,VIYSDGRRTFYVDSVK,GRAAGWFNS
nd,0 of 6,GFTLNSYGYS,VIYSDGRRTFYIDSVD,GRAAGTFDS
4.7 nM,6 of 6,GFNLNEYGIS,VIYADGRRTFYADSVK,GEIAGTFIL
1.8 nM,6 of 6,GFELNSYGIS,VIYSDGKRTFYGDSVK,GRTAGTFDA
nd,0 of 6,GFTLNSYGIS,VIYSDGRRTFYGDSVK,GRAALTFDE
nd,0 of 6,GKKLDEYGIS,VIYADGKRNFYSNSVK,GQLATGLFV
nd,0 of 6,GFTLKSYGIS,VIYSDGRRTFYSDSVK,GKAGGTFDS
3.1 nM,1 of 6,GFSLNEYGIS,VIYSDGRRTFYCDSVK,GRAAGTFDR
nd,0 of 6,GFDINEYGIS,VIYADGSRQAYADNVK,GFWGCVIYV
nd,0 of 6,SFTVNDYGIS,VCYSDGRRTFYGDNVK,GRAALTCIS
13 nM,4 of 6,GFELNSYGIS,VIYSDGRRTFYADSVK,GRMAGTFDT

Extract of 7 entries:

CDR-H1,CDR-H2,CDR-H3,apparent Kd,replicates with signal
GFELNEYGIS,VIYSDGRRTAYGDSVK,GRQAGTFDS,1.0 nM,6 of 6
GFSLNEYGIS,VIYSDGRRTFYCDSVK,GRAAGTFDR,3.1 nM,1 of 6
GFNLNEMGVS,VIYADGKRTVYADSVK,GHFGGVKLN,nd,0 of 6
GFDLNEYGIS,VIYADGVRTAYQDSVK,GNVAGTFDL,330 pM,6 of 6
GFTLNSYGIS,VIYSDGRRTFYGISVK,GRAAGTFDS,nd,0 of 6
GFTLKSYGIS,VIYSDGRRTFYSDSVK,GKAGGTFDS,nd,0 of 6
GFDLNEYGIH,VIYADGIRTVVSNDVK,GNVAGTIDV,160 pM,6 of 6